Source: ChEMBL document CHEMBL2380288, “Design, synthesis, and molecular modeling of novel pyrido[2,3-d]pyrimidine analogues as antifolates; application of Buchwald-Hartwig aminations of heterocycles” (J Med Chem, 2013)

Key:
[1] = system: Pneumocystis jirovecii; assay: Ratio of trimethoprim IC50 to compound IC50 for Pneumocystis jirovecii DHFR
[2] = Selectivity ratio of Toxoplasma gondii DHFR over human recombinant DHFR
[3] = Selectivity ratio of Pneumocystis carinii DHFR over human recombinant DHFR

Compound | Ratio IC50 [1] | Selectivity ratio [2] | Selectivity ratio [3]
CN(c1cc(F)c(F)c(F)c1)c1cnc2nc(N)nc(N)c2c1 | 30 | – | –
COc1ccc(OC)c(CN(C)c2cnc3nc(N)nc(N)c3c2)c1 | – | 303 | 101
